Two compounds from patent publication US20030055065A1, “Tricyclic amide and urea compounds useful for inhibition of G-protein function and for treatment of proliferative diseases” (priority 1993, published 2003) can be followed below.

Sequences of proteins named here, by UniProt entry; tags and fusion partners are left off.
UniProt Q02293, whole entry: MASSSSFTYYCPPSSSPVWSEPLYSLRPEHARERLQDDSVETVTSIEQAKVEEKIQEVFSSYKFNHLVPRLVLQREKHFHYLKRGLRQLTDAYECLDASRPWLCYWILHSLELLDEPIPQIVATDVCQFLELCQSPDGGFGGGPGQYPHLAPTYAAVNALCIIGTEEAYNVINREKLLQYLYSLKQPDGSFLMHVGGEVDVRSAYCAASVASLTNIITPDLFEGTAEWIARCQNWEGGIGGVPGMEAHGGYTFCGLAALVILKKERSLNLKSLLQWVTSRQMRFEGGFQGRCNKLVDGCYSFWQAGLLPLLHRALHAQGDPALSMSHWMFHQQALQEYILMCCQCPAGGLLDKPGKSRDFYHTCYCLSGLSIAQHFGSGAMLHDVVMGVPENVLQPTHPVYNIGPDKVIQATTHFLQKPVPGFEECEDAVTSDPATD
UniProt P53610, whole entry: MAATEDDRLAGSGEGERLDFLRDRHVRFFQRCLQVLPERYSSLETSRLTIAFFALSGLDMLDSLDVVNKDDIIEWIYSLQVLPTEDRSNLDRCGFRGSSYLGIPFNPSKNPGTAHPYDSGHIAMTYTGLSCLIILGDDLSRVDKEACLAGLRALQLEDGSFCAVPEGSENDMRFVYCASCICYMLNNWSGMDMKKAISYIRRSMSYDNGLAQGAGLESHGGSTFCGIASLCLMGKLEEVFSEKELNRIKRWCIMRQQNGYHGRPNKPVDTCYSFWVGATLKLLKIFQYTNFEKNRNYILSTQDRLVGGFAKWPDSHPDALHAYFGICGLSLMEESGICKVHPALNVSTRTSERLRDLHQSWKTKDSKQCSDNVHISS

pIC50: −log10 of the molar value.

Assay [1] relates to T24-BAG4 human bladder carcinoma cells expressing an activated H-ras gene. The assay can be described thus: Cell Mat Assay: tumor cell colony inhibition (tIC50). It is filed as cell-based. Conditions: read-out: Tumor IC50, Mat assay; inhibition of tumor cell growth.
Assay [2] concerns Normal human HEPM fibroblasts. The assay can be described thus: Cell Mat Assay: density of mat cells (mIC50). It is filed as cell-based. Conditions: read-out: Normal IC50, Mat assay.
In assay [3] the test system is Ras-CVLS processing in COS monkey kidney cells. The assay can be described thus: COS cell assay: Ras-CVLS processing (Western blot). It is filed as cell-based. Conditions: read-out: Inhibition of Ras Processing IC50.
Assay [4] addresses farnesyl protein transferase (FPT), partially purified from rat brain (Rattus norvegicus, UniProt Q02293+Q04631). Briefly: Inhibition of farnesyl protein transferase (transfer of [3H]farnesyl to Ras-CVLS). It is filed as biochemical. Conditions: read-out: FPT IC50, Ras-CVLS farnesylation.
For assay [5], the target named is geranylgeranyl protein transferase (GGPT) I (Rattus norvegicus, UniProt P53610+Q04631). The assay can be described thus: Inhibition of geranylgeranyl protein transferase I (Ras-CVLL as acceptor). It is filed as biochemical. As to conditions: read-out: GGPT IC50; enzyme inhibition.

One may read the pIC50 as the IC50 on a negative log10 scale, so that one unit is a factor of ten. For `CC(C(=O)N1CCC(=C2c3ccc(Cl)cc3CCc3cccnc32)CC1)c1ccncc1` (stereo not shown), the negative-log IC50 (pIC50) in assay [1] is 5.10; in assay [2] it was less than 4.30; in assay [3] it was 5.55; in assay [4], 5.95.
Turning to `Cc1ccc2c(n1)C(=C1CCN(C(=O)Cc3ccncc3)CC1)c1ccc(Cl)cc1CC2`, the pIC50 in assay [3] is less than 5.00; in assay [4] it was 6.03; in assay [5], 4.45.
